Data on eight compounds can be found in ChEMBL document CHEMBL1133013, “Structure-activity relationships and pharmacokinetic analysis for a series of potent, systemically available biphenylsulfonamide matrix metalloproteinase inhibitors” (J Med Chem, 2000).

Amino acid sequences for entries named in this document (tags omitted). A change or cut given only in a name is not applied to a line headed by its entry.
UniProt P14780: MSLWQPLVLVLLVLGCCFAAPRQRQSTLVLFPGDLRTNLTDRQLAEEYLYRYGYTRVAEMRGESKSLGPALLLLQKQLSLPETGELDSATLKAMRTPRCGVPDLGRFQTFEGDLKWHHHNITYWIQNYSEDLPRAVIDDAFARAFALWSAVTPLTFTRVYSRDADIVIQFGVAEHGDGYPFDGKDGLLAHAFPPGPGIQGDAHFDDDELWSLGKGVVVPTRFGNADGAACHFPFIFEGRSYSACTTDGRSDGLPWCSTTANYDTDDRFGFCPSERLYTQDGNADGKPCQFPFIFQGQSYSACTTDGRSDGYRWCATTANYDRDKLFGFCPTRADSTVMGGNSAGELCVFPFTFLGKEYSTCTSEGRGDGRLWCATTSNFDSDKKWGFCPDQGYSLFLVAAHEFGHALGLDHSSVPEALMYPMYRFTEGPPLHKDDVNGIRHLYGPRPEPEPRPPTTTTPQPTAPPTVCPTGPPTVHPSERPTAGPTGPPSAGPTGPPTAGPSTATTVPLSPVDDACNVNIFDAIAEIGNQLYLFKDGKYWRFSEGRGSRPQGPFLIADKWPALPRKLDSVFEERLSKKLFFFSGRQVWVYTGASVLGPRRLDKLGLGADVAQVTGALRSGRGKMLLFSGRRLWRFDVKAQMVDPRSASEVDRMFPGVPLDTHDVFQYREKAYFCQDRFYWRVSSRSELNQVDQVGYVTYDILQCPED
UniProt P08253: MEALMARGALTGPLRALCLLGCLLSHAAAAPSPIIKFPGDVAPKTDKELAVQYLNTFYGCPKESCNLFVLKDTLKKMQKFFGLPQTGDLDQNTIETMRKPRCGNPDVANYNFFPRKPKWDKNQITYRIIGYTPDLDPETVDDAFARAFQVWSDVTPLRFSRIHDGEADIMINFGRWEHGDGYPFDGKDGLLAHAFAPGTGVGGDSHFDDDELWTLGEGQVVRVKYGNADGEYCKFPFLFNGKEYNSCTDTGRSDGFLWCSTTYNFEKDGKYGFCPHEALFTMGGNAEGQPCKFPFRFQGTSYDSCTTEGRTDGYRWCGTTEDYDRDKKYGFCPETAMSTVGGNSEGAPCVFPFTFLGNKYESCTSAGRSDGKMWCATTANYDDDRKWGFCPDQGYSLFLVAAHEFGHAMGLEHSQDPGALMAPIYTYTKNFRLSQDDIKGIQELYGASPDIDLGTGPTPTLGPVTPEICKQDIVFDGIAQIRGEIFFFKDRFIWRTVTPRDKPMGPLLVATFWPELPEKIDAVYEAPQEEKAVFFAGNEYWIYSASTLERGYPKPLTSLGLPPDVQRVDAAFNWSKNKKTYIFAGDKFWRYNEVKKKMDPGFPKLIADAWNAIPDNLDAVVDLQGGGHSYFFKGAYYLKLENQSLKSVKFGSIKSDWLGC

Structures are written as SMILES. pIC50: −log10 of the molar value.

The target in one assay is Collagenase 3 (Homo sapiens, UniProt P45452).
For another assay, the target named is T1, Interstitial collagenase (Homo sapiens, UniProt P03956).
T1 sequence (P03956 whole entry): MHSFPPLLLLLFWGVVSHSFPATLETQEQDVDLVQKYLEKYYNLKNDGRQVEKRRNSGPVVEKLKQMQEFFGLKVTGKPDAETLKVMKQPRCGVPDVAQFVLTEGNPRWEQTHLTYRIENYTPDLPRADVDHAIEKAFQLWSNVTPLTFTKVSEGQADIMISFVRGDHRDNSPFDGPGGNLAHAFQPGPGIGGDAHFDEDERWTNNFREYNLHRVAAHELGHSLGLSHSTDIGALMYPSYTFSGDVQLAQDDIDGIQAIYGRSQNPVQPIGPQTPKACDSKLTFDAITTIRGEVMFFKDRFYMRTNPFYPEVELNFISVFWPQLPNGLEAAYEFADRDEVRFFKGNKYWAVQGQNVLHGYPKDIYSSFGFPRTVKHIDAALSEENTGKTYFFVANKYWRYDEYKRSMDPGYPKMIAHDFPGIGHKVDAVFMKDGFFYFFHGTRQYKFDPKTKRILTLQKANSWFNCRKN
Put plainly: In vitro inhibition of human recombinant matrix metalloprotease-1 (MMP-1).

In a further assay the target is T2, Matrilysin (Homo sapiens, UniProt P09237).
T2 sequence (P09237 whole entry): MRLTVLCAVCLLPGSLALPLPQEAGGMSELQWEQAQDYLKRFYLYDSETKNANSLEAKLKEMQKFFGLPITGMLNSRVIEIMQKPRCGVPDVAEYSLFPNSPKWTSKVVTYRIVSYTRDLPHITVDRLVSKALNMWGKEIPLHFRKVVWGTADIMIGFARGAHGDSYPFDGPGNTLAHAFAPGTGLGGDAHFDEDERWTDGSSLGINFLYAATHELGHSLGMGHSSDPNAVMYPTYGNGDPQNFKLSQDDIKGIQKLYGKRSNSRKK
Description: In vitro inhibition of matrix metalloprotease-7 (MMP-7). In short, it runs like this: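 Bacterially expressed catalytic domains, purified chromatographically. Run at pH 7.0: MMP-7 in 50 mM HEPES; MMP-2 in MOPS plus 10 μM ZnCl2. Both with 10 mM CaCl2, 1 mM DTNB, 0.1% Brij 35, 2% DMSO, 100 μM thioester peptide substrate, enzyme 2.5-50 nM. Thiol release read at A405 over 10 min. IC50 by sigmoid least-squares fit, replicate values averaged.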

The target of assay [1] is Matrix metalloproteinase-9 (Homo sapiens, UniProt P14780). Put plainly: In vitro inhibition of matrix metalloprotease-9 (MMP-9). An outline of the steps: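 Full-length enzymes from human cell-conditioned media. MMP-1 activated with trypsin, MMP-9 with MMP-3CD. pH 7.0, 50 mM HEPES, 10 mM CaCl2, 1 mM DTNB, 0.1% Brij 35, 2% DMSO, thioester peptide substrate (100 μM; MMP-9 50 μM), enzyme 2.5-50 nM. A405 followed 10 min. IC50 from sigmoid fit of % control activity, replicates averaged.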

Assay [2] has as its target 72 kDa type IV collagenase (Homo sapiens, UniProt P08253). Description: In vitro inhibition of matrix metalloprotease-2 (MMP-2).

The term pIC50 denotes −log10 of the IC50, conventionally taken in molar units. With `CC(C)[C@H](NS(=O)(=O)c1ccc(-c2ccc(C#N)cc2)cc1)C(=O)NO`, the pIC50 against Collagenase 3 was 6.24. For the compound `CC(C)[C@H](NS(=O)(=O)c1ccc(-c2ccc(N)cc2)cc1)C(=O)O`, at Interstitial collagenase, the pIC50 was 4.59. As for `O=C(CCc1ccccc1)NCCCC[C@H](NS(=O)(=O)c1ccc(-c2ccc(Br)cc2)cc1)C(=O)O`, at Collagenase 3, the pIC50 is 8.40. With `CC(C)[C@H](NS(=O)(=O)c1ccc(-c2cccc(Br)c2)cc1)C(=O)O`, the pIC50 (at Matrilysin; in assay [1]) was 4.00 throughout. `O=C(O)[C@H](Cc1ccccc1)NS(=O)(=O)c1ccc(-c2ccc(Br)cc2)cc1`: the pIC50 at Interstitial collagenase was 4.25. Still for that read-out and setting: the figure for `CC(C)[C@@H](NS(=O)(=O)c1ccc(Oc2ccccc2)cc1)C(=O)NO` is 7.30.

For the compound `CC(C)[C@@H](NS(=O)(=O)c1ccc(-c2ccc(C#N)cc2)cc1)C(=O)NO`, the pIC50 at Collagenase 3 was 9.00. `CC(C)[C@H](NS(=O)(=O)c1ccc(-c2ccc(C(F)(F)F)cc2)cc1)C(=O)O` gave a pIC50 in assay [2] of 7.89.
